Results taken from patent US11707503B2, “Modulators of complement activity” (Ra Pharmaceuticals, Inc., priority 2015, dated 2023).

How the values were obtained:
C5a = C5a enzyme immunoassay (EIA) on human RBC hemolysis assay supernatant; type: biochemical; settings: hemolysis supernatant diluted 1:50; read-out: IC50, inhibition of formation of C5a
Procedure: (§1) Inhibition of the production of C5a and the membrane attack complex (MAC) were measured by MicroVue EIA kits (Quidel Corporation, San Diego, Calif.).
as §1

[1] = tested on: membrane attack complex (MAC); assay: Membrane attack complex (MAC) EIA on human RBC hemolysis assay supernatant; type: biochemical; settings: hemolysis supernatant diluted 1:5; read-out: IC50, inhibition of formation of the MAC
Procedure: as §1, §1

[2] = Pharmacokinetic studies in rat (IV and SC); settings: R3183 versus R3176
Source text: In the figure, circles represent concentrations obtained after SC dose and squares represent concentrations obtained after IV dose.
Blood samples were collected at indicated time points, processed into plasma, and analyzed for the indicated compound by LC-MS. […] Blood samples were collected at indicated time points, processed into plasma, and analyzed for the indicated compound by LC-MS.

[3] = tested on: thrombin-induced complement pathway; assay: Inhibition of hemolysis in the thrombin-induced complement pathway (C5, C6, thrombin, then C7, C8, C9); type: cell-based
Procedure: These diluted samples were mixed with antibody-sensitized sheep erythrocytes (Complement Technology, Tyler, Tex.) in a 96-well microtitre plate (USA Scientific, Ocala, Fla.) and incubated at 37° C. for 5 minutes. C7 (Complement Technology, Tyler, Tex.) was then added to the wells to achieve a concentration of 15 nM and the plate was returned to 37° C. for 15 minutes. A complex of C8 (10 nM; Complement Technology, Tyler, Tex.) and C9 (25 nM; Complement Technology, Tyler, Tex.) was then added to the assay mixture and the samples were incubated for 30 minutes at 37° C.
The reaction was stopped with the addition of hirudin. The diluted samples were mixed with antibody-sensitized sheep erythrocytes and then incubated for 5 minutes at 37° C. Purified C7 was added and incubated for 15 minutes at 37° C. A complex of purified C8 and C9 was then added and the mixture was incubated for 30 minutes at 37° C.

[4] = tested on: alternative pathway of complement activation; assay: WIESLAB complement system screening kit, alternative pathway; type: biochemical; settings: serum samples, read-out: IC50, inhibition of the alternative pathway of complement activation
C5 [5] = assay: Hemolysis assay with pig serum; type: cell-based, pigs
C5 [6] = assay: Hemolysis assay with dog serum; type: cell-based, dogs
primate C5 protein = assay: Pharmacodynamic and pharmacokinetic multi-dose study in non-human primates with ex vivo hemolysis
Procedure: This group was also monitored for 10 days after receiving the final dose. Plasma samples were obtained prior to each dose, immediately post-dose and twice thereafter each day until daily dosing was completed. Samples were taken periodically thereafter for 10 days.
The inhibition of complement-mediated MAC formation in the same plasma samples was examined using an established ex vivo assay in which plasma was diluted 1:100 and incubated with activated sheep red blood cells (Complement Technology, Tyler, Tex.). At each time-point, the hemolytic activity was determined as an indicator of active serum complement (see FIGS. 12A and 12B).

C5 [7] = tested on: C5

## CCCCCCCCCCCCCCCC(=O)NCCCC[C@H](NC(=O)[C@@H](NC(=O)[C@@H]1CCCN1C(=O)[C@H](Cc1ccc(O)cc1)NC(=O)[C@H](CCC(=O)O)NC(=O)[C@H](Cc1c[nH]c2ncccc12)NC(=O)[C@H](Cc1ccc(O)cc1)NC(=O)[C@@H](NC(=O)[C@H](CC(=O)O)N(C)C(=O)[C@@H]1CC(=O)NCCCC[C@H](NC(C)=O)C(=O)N[C@@H](C(C)C)C(=O)N[C@@H](CCC(=O)O)C(=O)N[C@@H](CCCNC(=N)N)C(=O)N[C@@H](Cc2ccccc2)C(=O)N1)C(C)(C)C)C1CCCCC1)C(=O)O [Compound R3183, [cyclo(1,6)]Ac-K-V-E-R-F-D-(N—Me)D-Tbg-Y-azaTrp-E-Y-P-Chg-(Lys-C16)]
C5a
  IC50: 11 nM
[1]
  IC50: 6.9 nM
[2]; 2 mg/kg IV
  increase in exposure (AUC) by lipidation, intravenous route: 2.1 fold
[2]; 15 mg/kg SC
  increase in exposure (AUC) by lipidation, subcutaneous route: 2.7 fold
[3]
  inhibition of hemolysis by the thrombin-induced complement pathway in words: strong inhibition
[4]
  IC50: 12.5 nM
C5 [5]
  activity in serum from pigs: active
C5 [6]
  activity in the serum of dogs: less active
Primate C5 protein; low dose group 0.3 mg/kg daily, some plasma concentrations between 2000 and 4000 ng/ml
  inhibition of hemolytic activity ex vivo: 90%
Primate C5 protein; low dose group, most plasma concentrations above 4000 ng/ml
  inhibition of hemolytic activity ex vivo: greater than 90%
Primate C5 protein; non-human primates, daily dosing for 7 days
  time after final treatments that inhibition of hemolytic activity was detected: up to 10 days
C5 [7]
  activity in the serum of rodents: less active
